Results from patent US20220387396A1, “METHODS OF TREATING THE SYMPTOMS OF AUTISM SPECTRUM DISORDER” (MapLight Therapeutics, Inc., priority 2019, published 2022).

Amino acid sequences for entries named in this document (tags omitted).
UniProt P28222, whole entry: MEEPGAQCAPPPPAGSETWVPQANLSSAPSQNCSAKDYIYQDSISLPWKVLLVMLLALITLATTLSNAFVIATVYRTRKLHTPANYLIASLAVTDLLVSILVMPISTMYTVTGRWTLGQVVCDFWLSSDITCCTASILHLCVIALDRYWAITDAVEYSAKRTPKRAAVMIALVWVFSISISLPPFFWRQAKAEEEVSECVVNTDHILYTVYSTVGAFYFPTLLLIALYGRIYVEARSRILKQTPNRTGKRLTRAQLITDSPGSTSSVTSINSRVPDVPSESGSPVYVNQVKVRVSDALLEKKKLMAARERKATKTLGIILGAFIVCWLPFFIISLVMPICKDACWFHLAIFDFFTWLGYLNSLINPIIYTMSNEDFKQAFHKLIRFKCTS

Molecular target: 5-HT1b receptor (Homo sapiens, UniProt P28222)
Assay: Radioligand binding competition assay with 3H-5-CT
Conditions: derived from IC50 using Cheng-Prusoff equation
Text: The Ki values were derived from IC50 values using Cheng-Prusoff equation.

Structure (SMILES): CN[C@@H]1CCc2[nH]c3ccc(C(N)=O)cc3c2C1 [Frovatriptan, frovatriptan]
- Ki: 3.36 nM
